# From BindingDB's records for 25864869
# Chains of the proteins cited; added tags and fusions are not shown.
# UniProt P75906, whole entry, looked up: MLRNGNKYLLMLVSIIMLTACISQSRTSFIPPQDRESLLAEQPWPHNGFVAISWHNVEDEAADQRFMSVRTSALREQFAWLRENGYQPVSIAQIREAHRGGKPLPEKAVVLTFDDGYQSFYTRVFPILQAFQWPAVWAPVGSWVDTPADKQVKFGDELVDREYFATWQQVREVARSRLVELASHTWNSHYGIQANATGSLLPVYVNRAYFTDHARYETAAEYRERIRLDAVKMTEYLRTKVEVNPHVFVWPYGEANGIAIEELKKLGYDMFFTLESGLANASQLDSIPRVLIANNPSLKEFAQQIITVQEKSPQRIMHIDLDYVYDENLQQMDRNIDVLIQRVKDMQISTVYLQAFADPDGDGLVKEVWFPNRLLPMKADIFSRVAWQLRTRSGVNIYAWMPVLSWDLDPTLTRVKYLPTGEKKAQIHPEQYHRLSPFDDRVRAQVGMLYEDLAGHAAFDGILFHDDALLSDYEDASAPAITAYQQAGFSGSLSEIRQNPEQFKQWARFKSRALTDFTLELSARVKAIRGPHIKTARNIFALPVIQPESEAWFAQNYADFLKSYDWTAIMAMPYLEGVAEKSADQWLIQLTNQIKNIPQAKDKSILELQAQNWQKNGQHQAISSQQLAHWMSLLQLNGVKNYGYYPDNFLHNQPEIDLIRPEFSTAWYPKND
# Target: Poly-beta-1,6-N-acetyl-D-glucosamine N-deacetylase (Escherichia coli (strain K12), UniProt P75906)
# Conditions: pH 7.5
row,Structure (SMILES),Ki
1,CP(=O)(O)N[C@H]1C(O)[C@H](O)C(COCc2ccccc2)O[C@H]1OCc1ccccc1 (stereo not given in full),> 1 mM
2,CO[C@@H]1OC(COCc2ccccc2)[C@@H](O)C(O)[C@@H]1NP(C)(=O)O (stereo not given in full),> 1 mM
3,CP(=O)(O)N[C@H]1C(O)[C@H](OCc2ccccc2)C(CO)O[C@H]1OCc1ccccc1 (stereo not given in full),> 1 mM
4,CO[C@@H]1OC(CO)[C@@H](OCc2ccccc2)C(O)[C@@H]1NP(C)(=O)O (stereo not given in full),> 1 mM
5,COC1[C@H](O)C(COCc2ccccc2)O[C@@H](OC)[C@H]1NP(C)(=O)O (stereo not given in full),> 1 mM
